Laboratory results from patent US20080081051A1, “Method of manufacturing anti-tumor and anti-viral compositions” (priority 2006, published 2008).

Conditions: cynomolgus monkey, in vivo, iv

iron dextran
time remaining in plasma at milligram levels: at least 120 hours
